## Measured affinities in a library of Ab-91 heavy chain variants

All variants were tested on one target, the spike HR2 peptide PDVDLGDISGINAS (SARS-CoV-2).

The variants keep the light chain, the linker and the frameworks of Ab-91 (scFv order VL, three GGGGS repeats, VH).
VL: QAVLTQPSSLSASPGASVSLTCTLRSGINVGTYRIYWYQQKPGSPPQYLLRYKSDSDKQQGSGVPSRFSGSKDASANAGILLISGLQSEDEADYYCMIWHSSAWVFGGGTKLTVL
VH: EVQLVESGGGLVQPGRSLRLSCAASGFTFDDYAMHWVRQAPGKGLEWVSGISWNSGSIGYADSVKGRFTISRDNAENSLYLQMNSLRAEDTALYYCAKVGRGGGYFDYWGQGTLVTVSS

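The starting antibody came from a phage panning campaign against this peptide. Library AAYL51 holds single substitutions and randomly drawn double and triple substitutions in the CDRs. The assay is AlphaSeq: two haploid yeast populations carry antibody and antigen on their surface. Pairs that bind mate more often; barcode pairs of the diploids are counted by sequencing. Each replicate has its own calibration line, from reference interactions of the BCL2 family. Each pool was mated in three replicate cultures.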

Each variant's VH is given in full.
This list gathers variants with a substitution at A33 (VH, numbered from residue 1).
Each Kd is an estimate from the mating assay, the geometric mean of the replicates in which the pair was seen; lower is stronger.
An entry "no signal" has no value in the source: the pair was not observed among the diploids in any replicate. This suggests poor binding but is not conclusive.
Order: sorted from the lowest average up, undetected variants last.
Empty control strains, which show no peptide, gave a signal in 21% of pairings with library AAYL51; the median was 34 µM and 95% of these signals were weaker than 1.8 µM. No background was subtracted. Also given: how often the same scFv was detected with the empty control strains.

For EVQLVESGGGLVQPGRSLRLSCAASGFTFDDYSMHWVRQAPGKGLEWVSGISWNSGSIGYADSVKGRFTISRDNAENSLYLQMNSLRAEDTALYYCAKVGRGGGYLDYWGQGTLVTVSS, the assay gave 5.6 nM (3 of 3 replicates; controls 2 of 9).
For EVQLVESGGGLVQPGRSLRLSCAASGFTFDDYSMHWVRQAPGKGLEWVSGISWNSGSIGYADDVKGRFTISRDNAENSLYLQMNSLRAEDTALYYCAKVGRGGGYFDYWGQGTLVTVSS, the assay gave 23 nM (3 of 3 replicates; controls 5 of 9).
For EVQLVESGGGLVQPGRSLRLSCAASGFGFDDYEMHWVRQAPGKGLEWVSGISWNSGSIGYADSVKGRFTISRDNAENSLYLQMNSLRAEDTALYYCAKVGRGGGYFDYWGQGTLVTVSS, the assay gave 1.0 µM (1 of 3 replicates; controls 0 of 9).
For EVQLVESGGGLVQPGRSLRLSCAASGFTFDAYEMHWVRQAPGKGLEWVSGISWNSGSIGYADSVKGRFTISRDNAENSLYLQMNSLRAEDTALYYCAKNGRGGGYFDYWGQGTLVTVSS, the assay gave 2.2 µM (1 of 3 replicates; controls 0 of 9).
For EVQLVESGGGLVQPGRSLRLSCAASGFTFDDYHMHWVRQAPGKGLEWVSGISWNSGSIGYADSYKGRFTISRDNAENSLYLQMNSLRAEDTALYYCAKVGRGGGYMDYWGQGTLVTVSS, the assay gave 2.5 µM (1 of 3 replicates; controls 0 of 9).
For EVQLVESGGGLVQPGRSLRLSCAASGFTFDYYNMHWVRQAPGKGLEWVSGISWNSGSIGYATSVKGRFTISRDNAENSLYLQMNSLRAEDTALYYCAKVGRGGGYFDYWGQGTLVTVSS, the assay gave 6.1 µM (1 of 3 replicates; controls 3 of 9).
For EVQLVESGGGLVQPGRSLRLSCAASGFTFDDYNMHWVRQAPGKGLEWVSGISWNSGSIHYADSVKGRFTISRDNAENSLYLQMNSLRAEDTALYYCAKVGRGGGYFDYWGQGTLVTVSS, the assay gave 11 µM (1 of 3 replicates; controls 1 of 9).
For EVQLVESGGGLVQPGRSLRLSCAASGFTFDDYPMHWVRQAPGKGLEWVSGISWNSGSIHYADSVKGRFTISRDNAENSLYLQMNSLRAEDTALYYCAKVGRGGGYFDNWGQGTLVTVSS, the assay gave 12 µM (2 of 3 replicates; controls 1 of 9).
For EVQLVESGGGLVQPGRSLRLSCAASGFTFDDYKMHWVRQAPGKGLEWVSIQSWNSGSIGYADSVKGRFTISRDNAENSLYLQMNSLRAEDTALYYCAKVGRGGGYFDYWGQGTLVTVSS, the assay gave 35 µM (1 of 3 replicates; controls 3 of 9).
For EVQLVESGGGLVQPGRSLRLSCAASGFTFDDYSMHWVRQAPGKGLEWVSGISWNSGSRGYADSVKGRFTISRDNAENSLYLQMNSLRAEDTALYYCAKRGRGGGYFDYWGQGTLVTVSS, the assay gave 85 µM (3 of 3 replicates; controls 6 of 9).
For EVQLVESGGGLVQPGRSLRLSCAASGKTDDDYWMHWVRQAPGKGLEWVSGISWNSGSIGYADSVKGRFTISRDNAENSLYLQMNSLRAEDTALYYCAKVGRGGGYFDYWGQGTLVTVSS, the assay gave 180 µM (1 of 3 replicates; controls 4 of 9).
For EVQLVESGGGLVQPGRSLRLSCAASGFTFDDYSMHWVRQAPGKGLEWVSGISWNSGSIGRADSNKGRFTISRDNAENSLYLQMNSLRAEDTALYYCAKVGRGGGYFDYWGQGTLVTVSS, the assay gave 280 µM (2 of 3 replicates; controls 4 of 9).
For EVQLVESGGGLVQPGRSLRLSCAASGVTFDDYTMHWVRQAPGKGLEWVSWISWNSGSIGYADSVKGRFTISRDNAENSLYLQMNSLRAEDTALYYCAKVGRGGGYFDYWGQGTLVTVSS, the assay gave 430 µM (1 of 3 replicates; controls 4 of 9).
For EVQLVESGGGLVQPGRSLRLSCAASGFTFDHYWMHWVRQAPGKGLEWVSGISWNSGSIGYADSVKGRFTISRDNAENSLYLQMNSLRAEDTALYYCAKVGRGGGYFDYWGQGTLVTVSS, the assay gave 1.0 mM (3 of 3 replicates; controls 5 of 9).
For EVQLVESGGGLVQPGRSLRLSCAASGFTFDDWIMHWVRQAPGKGLEWVSGISWNSGSIGYADSVKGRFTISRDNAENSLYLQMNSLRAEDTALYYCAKVGRGGGNFDYWGQGTLVTVSS, the assay gave 1.1 mM (2 of 3 replicates; controls 7 of 9).
For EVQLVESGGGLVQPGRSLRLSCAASGQTFDDYRMHWVRQAPGKGLEWVSGISWNSGSIDYADSVKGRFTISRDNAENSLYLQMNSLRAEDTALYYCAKVGRGGGYFDYWGQGTLVTVSS, the assay gave no signal (0 of 3 replicates; controls 1 of 9).
For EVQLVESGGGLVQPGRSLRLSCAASGFAFDDYHMHWVRQAPGKGLEWVSGISWNSGSIGYADSAKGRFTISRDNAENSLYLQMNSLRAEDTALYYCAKVGRGGGYFDYWGQGTLVTVSS, the assay gave no signal (0 of 3 replicates; controls 0 of 9).
For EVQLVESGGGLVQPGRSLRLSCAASGFTFDDYQMHWVRQAPGKGLEWVSGISWNSGSIGYADSVKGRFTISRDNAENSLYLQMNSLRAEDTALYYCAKVGRGCGSFDYWGQGTLVTVSS, the assay gave no signal (0 of 3 replicates; controls 0 of 9).
For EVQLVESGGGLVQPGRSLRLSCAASGFTFDDYWMHWVRQAPGKGLEWVSGIMWGSGSIGYADSVKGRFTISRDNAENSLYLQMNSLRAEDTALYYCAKVGRGGGYFDYWGQGTLVTVSS, the assay gave no signal (0 of 3 replicates; controls 0 of 9).
For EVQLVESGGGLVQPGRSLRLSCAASGFTFDDYPMHWVRQAPGKGLEWVSGISWNSGSIGYADSVDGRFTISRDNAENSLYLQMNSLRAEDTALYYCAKVGRGGGYFFYWGQGTLVTVSS, the assay gave no signal (0 of 3 replicates; controls 2 of 9).
For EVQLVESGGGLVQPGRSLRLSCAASGFTFDDYRMHWVRQAPGKGLEWVSGISWNSGSKGYADFVKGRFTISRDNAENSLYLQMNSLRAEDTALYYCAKVGRGGGYFDYWGQGTLVTVSS, the assay gave no signal (0 of 3 replicates; controls 4 of 9).
For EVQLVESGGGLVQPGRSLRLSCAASLFTFDDYSMDWVRQAPGKGLEWVSGISWNSGSIGYADSVKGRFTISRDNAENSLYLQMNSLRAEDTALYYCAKVGRGGGYFDYWGQGTLVTVSS, the assay gave no signal (0 of 3 replicates; controls 0 of 9).

For reference, the parent read 72 nM as the reference entry and 7.5 nM as a member of this library.

Reference: Engelhart et al. 2022, doi:10.1038/s41597-022-01779-4. File: FLAb, binding data.